In patent publication US20220409585A1, “TREATMENT OF AUTOINFLAMMATORY DISORDERS” (Inflazome Limited, priority 2019, published 2022):

Tested on: CAPS patient (NLRP3 mutation Arg260Trp)
Assay: Treatment of a CAPS patient (humans in vivo)
Set-up: species or system human
Details: oral, twice daily, 3.3 mg/kg/dose for 7 days, one CAPS patient

Structure (SMILES): CC(C)n1ccc(S(=O)(=O)NC(=O)Nc2c3c(cc4c2CCC4)CCC3)n1 [compound of formula (I)]
- tolerability of treatment: well tolerated
